Patent US6936585B2, “Corticotropin releasing factor 2 receptor agonists” (priority 2002, dated 2005)

Assays:
CRF1R = target: T1, CRF1R (Homo sapiens, UniProt P34998); test: CRF1R agonist activation (EC50 / Emax), called comparative CRF binding; assay type: cell-based; settings: for Emax: read-out: CRF1R Emax
T1 sequence (P34998 24-415): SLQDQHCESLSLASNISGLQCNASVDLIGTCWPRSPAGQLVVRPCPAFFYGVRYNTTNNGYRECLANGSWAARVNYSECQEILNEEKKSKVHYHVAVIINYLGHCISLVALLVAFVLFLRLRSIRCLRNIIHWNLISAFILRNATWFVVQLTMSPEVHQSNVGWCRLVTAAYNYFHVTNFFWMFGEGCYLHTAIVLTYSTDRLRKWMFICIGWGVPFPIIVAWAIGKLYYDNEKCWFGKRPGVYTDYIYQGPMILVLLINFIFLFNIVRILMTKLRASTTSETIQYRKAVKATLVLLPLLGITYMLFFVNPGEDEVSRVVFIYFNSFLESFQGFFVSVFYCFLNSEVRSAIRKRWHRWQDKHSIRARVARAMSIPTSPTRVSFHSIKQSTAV
Summary of the method: (§1)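 Read-out is Gαs-driven cAMP induction, quantified directly in lysates or through CRE-reporter gene expression, after treating CRF1R- or CRF2R-expressing cells with peptide. Vehicle-treated cells serve as the comparison.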

CRF2R = target: T2, CRF2R (Homo sapiens, UniProt Q13324); test: CRF2R agonist activation (EC50 / Emax), called comparative CRF binding; assay type: cell-based; settings: for Emax: read-out: CRF2R Emax
T2 sequence (Q13324 1-411): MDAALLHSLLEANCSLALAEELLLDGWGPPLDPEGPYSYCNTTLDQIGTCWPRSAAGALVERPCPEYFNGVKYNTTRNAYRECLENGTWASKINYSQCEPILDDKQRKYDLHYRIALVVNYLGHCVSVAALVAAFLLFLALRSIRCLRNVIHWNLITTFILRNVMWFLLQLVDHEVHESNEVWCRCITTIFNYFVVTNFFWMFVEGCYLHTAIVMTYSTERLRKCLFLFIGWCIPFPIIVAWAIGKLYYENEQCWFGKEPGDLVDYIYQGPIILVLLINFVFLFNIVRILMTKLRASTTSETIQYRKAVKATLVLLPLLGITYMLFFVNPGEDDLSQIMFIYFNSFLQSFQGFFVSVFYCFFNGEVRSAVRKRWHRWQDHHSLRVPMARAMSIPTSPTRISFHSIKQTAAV
Summary of the method: as §1

SMILES | Emax (CRF1R) [%] | Emax (CRF2R) [%] | EC50 (CRF1R; CRF1R EC50) [nM] | EC50 (CRF2R) [nM]
CC[C@H](C)[C@H](NC(=O)[C@@H](NC(=O)[C@H](C)NC(=O)[C@H](CC(C)C)NC(=O)[C@H](CC(C)C)NC(=O)[C@H](CC(C)C)NC(=O)[C@H](C)NC(=O)[C@H](CC(N)=O)NC(=O)[C@H](CC(N)=O)NC(=O)[C@H](C)NC(=O)[C@H](C)NC(=O)[C@H](CCC(N)=O)NC(=O)[C@H](CCC(N)=O)NC(=O)[C@H](CCCCN)NC(=O)[C@H](CCC(=O)O)NC(=O)[C@H](CCCCN)NC(=O)[C@H](CCC(=O)O)NC(=O)[C@H](CCC(N)=O)NC(=O)[C@H](CCCCN)NC(=O)[C@H](CCC(=O)O)NC(=O)[C@@H](NC(=O)[C@H](CCC(=O)O)NC(=O)[C@@H](NC(=O)[C@H](CCSC)NC(=O)[C@H](CCCCN)NC(=O)[C@H](CCCNC(=N)N)NC(=O)[C@H](CC(C)C)NC(=O)[C@H](CC(C)C)NC(=O)[C@H](Cc1c[nH]cn1)NC(=O)[C@H](CC(C)C)NC(=O)[C@@H]1CCCN1C(=O)[C@H](CC(C)C)NC(=O)[C@H](CC(=O)O)NC(=O)[C@@H](NC(=O)[C@H](CO)NC(=O)[C@@H](NC(=O)[C@@H]1CCCN1C(=O)[C@@H]1CCCN1C(=O)CNC(=O)[C@@H]1CCC(=O)N1)[C@@H](C)CC)[C@@H](C)CC)[C@@H](C)CC)[C@@H](C)CC)[C@@H](C)O)C(N)=O [compound 241] | 99 | 99 | – | –
CC[C@H](C)[C@H](NC(=O)[C@@H](NC(=O)[C@H](C)NC(=O)[C@H](CC(C)C)NC(=O)[C@H](CC(C)C)NC(=O)[C@H](CC(C)C)NC(=O)[C@H](C)NC(=O)[C@H](CC(N)=O)NC(=O)[C@H](CC(N)=O)NC(=O)[C@H](C)NC(=O)[C@H](C)NC(=O)[C@H](CCC(N)=O)NC(=O)[C@H](CCC(N)=O)NC(=O)[C@H](CCCCN)NC(=O)[C@H](CCC(=O)O)NC(=O)[C@H](CCCCN)NC(=O)[C@H](CCC(=O)O)NC(=O)[C@H](CCC(N)=O)NC(=O)[C@H](CCCCN)NC(=O)[C@H](CCC(=O)O)NC(=O)[C@@H](NC(=O)[C@H](CCC(=O)O)NC(=O)[C@@H](NC(=O)[C@H](CCSC)NC(=O)[C@H](CCCCN)NC(=O)[C@H](CCCNC(=N)N)NC(=O)[C@H](CC(C)C)NC(=O)[C@H](CC(C)C)NC(=O)[C@H](CCC(=O)O)NC(=O)[C@H](CC(C)C)NC(=O)[C@@H]1CCCN1C(=O)[C@H](CC(C)C)NC(=O)[C@H](CC(=O)O)NC(=O)[C@@H](NC(=O)[C@H](CO)NC(=O)[C@@H](NC(=O)[C@@H]1CCCN1C(=O)[C@@H]1CCCN1C(=O)CNC(=O)[C@@H]1CCC(=O)N1)[C@@H](C)CC)[C@@H](C)CC)[C@@H](C)CC)[C@@H](C)CC)[C@@H](C)O)C(N)=O [compound 234] | 96 | 100 | – | –
CC[C@H](C)[C@H](NC(=O)[C@@H](NC(=O)[C@H](C)NC(=O)[C@H](CC(C)C)NC(=O)[C@H](CC(C)C)NC(=O)[C@H](CC(C)C)NC(=O)[C@H](C)NC(=O)[C@H](CC(N)=O)NC(=O)[C@H](CC(N)=O)NC(=O)[C@H](C)NC(=O)[C@H](C)NC(=O)[C@H](CCC(N)=O)NC(=O)[C@H](CCC(N)=O)NC(=O)[C@H](CCCCN)NC(=O)[C@H](CCC(=O)O)NC(=O)[C@H](CCCCN)NC(=O)[C@H](CCC(=O)O)NC(=O)[C@H](CCC(N)=O)NC(=O)[C@H](CCCCN)NC(=O)[C@H](CCC(=O)O)NC(=O)[C@@H](NC(=O)[C@H](CCC(=O)O)NC(=O)[C@@H](NC(=O)[C@H](CCSC)NC(=O)[C@H](CCCCN)NC(=O)[C@H](CCC(=O)O)NC(=O)[C@H](CC(C)C)NC(=O)[C@H](CC(C)C)NC(=O)[C@H](CCC(N)=O)NC(=O)[C@H](CC(C)C)NC(=O)[C@@H]1CCCN1C(=O)[C@H](CC(C)C)NC(=O)[C@H](CC(=O)O)NC(=O)[C@@H](NC(=O)[C@H](CO)NC(=O)[C@@H](NC(=O)[C@@H]1CCCN1C(=O)[C@@H]1CCCN1C(=O)CNC(=O)[C@@H]1CCC(=O)N1)[C@@H](C)CC)[C@@H](C)CC)[C@@H](C)CC)[C@@H](C)CC)[C@@H](C)O)C(N)=O [compound 249] | 50 | 92 | ≥ 1000 | 12.2
CC[C@H](C)[C@H](NC(=O)[C@H](CCC(=O)O)NC(=O)[C@@H](NC(=O)[C@H](CCSC)NC(=O)[C@H](CCCCN)NC(=O)[C@H](CCCNC(=N)N)NC(=O)[C@H](CC(C)C)NC(=O)[C@H](CC(C)C)NC(=O)[C@H](Cc1ccc(O)cc1)NC(=O)[C@H](CC(C)C)NC(=O)[C@@H]1CCCN1C(=O)[C@H](CC(C)C)NC(=O)[C@H](CC(=O)O)NC(=O)[C@@H](NC(=O)[C@H](CO)NC(=O)[C@@H](NC(=O)[C@@H]1CCCN1C(=O)[C@@H]1CCCN1C(=O)CNC(=O)[C@@H]1CCC(=O)N1)[C@@H](C)CC)[C@@H](C)CC)[C@@H](C)CC)C(=O)N[C@@H](CCC(=O)O)C(=O)N[C@@H](CCCCN)C(=O)N[C@@H](CCC(N)=O)C(=O)N[C@@H](CCC(=O)O)C(=O)N[C@@H](CCCCN)C(=O)N[C@@H](CCC(=O)O)C(=O)N[C@@H](CCCCN)C(=O)N[C@@H](CCC(N)=O)C(=O)N[C@@H](CCC(N)=O)C(=O)N[C@@H](C)C(=O)N[C@@H](C)C(=O)N[C@@H](CC(N)=O)C(=O)N[C@@H](CC(N)=O)C(=O)N[C@@H](CCCNC(=N)N)C(=O)N[C@@H](CC(C)C)C(=O)N[C@@H](CC(C)C)C(=O)N[C@@H](CC(C)C)C(=O)N[C@@H](CC(=O)O)C(=O)N[C@H](C(N)=O)[C@@H](C)O [compound 81] | 81 | 73 | – | –
CC[C@H](C)[C@H](NC(=O)[C@@H](NC(=O)[C@H](CC(=O)O)NC(=O)[C@H](CC(C)C)NC(=O)[C@H](CC(C)C)NC(=O)[C@H](CC(C)C)NC(=O)[C@H](CCCNC(=N)N)NC(=O)[C@H](CC(N)=O)NC(=O)[C@H](CC(N)=O)NC(=O)[C@H](C)NC(=O)[C@H](C)NC(=O)[C@H](CCC(N)=O)NC(=O)[C@H](CCC(N)=O)NC(=O)[C@H](CCCCN)NC(=O)[C@H](CCC(=O)O)NC(=O)[C@H](CCCCN)NC(=O)[C@H](CCC(=O)O)NC(=O)[C@H](CCC(N)=O)NC(=O)[C@H](CCCCN)NC(=O)[C@H](CCC(=O)O)NC(=O)[C@@H](NC(=O)[C@H](CCC(=O)O)NC(=O)[C@@H](NC(=O)[C@H](CCSC)NC(=O)[C@H](CCCCN)NC(=O)[C@H](CCCNC(=N)N)NC(=O)[C@H](CC(C)C)NC(=O)[C@H](CC(C)C)NC(=O)[C@H](Cc1ccc(O)cc1)NC(=O)[C@H](Cc1ccccc1)NC(=O)[C@@H]1CCCN1C(=O)[C@H](CC(C)C)NC(=O)[C@H](CC(=O)O)NC(=O)[C@@H](NC(=O)[C@H](CO)NC(=O)[C@@H](NC(=O)[C@@H]1CCCN1C(=O)[C@@H]1CCCN1C(=O)CNC(=O)[C@@H]1CCC(=O)N1)[C@@H](C)CC)[C@@H](C)CC)[C@@H](C)CC)[C@@H](C)CC)[C@@H](C)O)C(N)=O [compound 85] | 84 | 100 | – | –
CC[C@H](C)[C@H](NC(=O)[C@@H](NC(=O)[C@H](CC(=O)O)NC(=O)[C@H](CC(C)C)NC(=O)[C@H](CC(C)C)NC(=O)[C@H](CC(C)C)NC(=O)[C@H](CCCNC(=N)N)NC(=O)[C@H](CC(N)=O)NC(=O)[C@H](CC(N)=O)NC(=O)[C@H](C)NC(=O)[C@H](C)NC(=O)[C@H](CCC(N)=O)NC(=O)[C@H](CCC(N)=O)NC(=O)[C@H](CCCCN)NC(=O)[C@H](CCC(=O)O)NC(=O)[C@H](CCCCN)NC(=O)[C@H](CCC(=O)O)NC(=O)[C@H](CCC(N)=O)NC(=O)[C@H](CCCCN)NC(=O)[C@H](CCC(=O)O)NC(=O)[C@@H](NC(=O)[C@H](CCC(=O)O)NC(=O)[C@@H](NC(=O)[C@H](CCSC)NC(=O)[C@H](CCCCN)NC(=O)[C@H](CCCNC(=N)N)NC(=O)[C@H](CC(C)C)NC(=O)[C@H](CC(C)C)NC(=O)[C@H](Cc1ccc(O)cc1)NC(=O)[C@H](CO)NC(=O)[C@@H]1CCCN1C(=O)[C@H](CC(C)C)NC(=O)[C@H](CC(=O)O)NC(=O)[C@@H](NC(=O)[C@H](CO)NC(=O)[C@@H](NC(=O)[C@@H]1CCCN1C(=O)[C@@H]1CCCN1C(=O)CNC(=O)[C@@H]1CCC(=O)N1)[C@@H](C)CC)[C@@H](C)CC)[C@@H](C)CC)[C@@H](C)CC)[C@@H](C)O)C(N)=O [compound 56] | 14 | 87 | – | –
CC[C@H](C)[C@H](NC(=O)[C@H](CCC(=O)O)NC(=O)[C@@H](NC(=O)[C@H](CCSC)NC(=O)[C@H](CCCCN)NC(=O)[C@H](CCCNC(=N)N)NC(=O)[C@H](CC(C)C)NC(=O)[C@H](CC(C)C)NC(=O)[C@H](CCC(N)=O)NC(=O)[C@H](Cc1ccccc1)NC(=O)[C@@H]1CCCN1C(=O)[C@H](CC(C)C)NC(=O)[C@H](CC(=O)O)NC(=O)[C@@H](NC(=O)[C@H](CO)NC(=O)[C@@H](NC(=O)[C@@H]1CCCN1C(=O)[C@@H]1CCCN1C(=O)CNC(=O)[C@@H]1CCC(=O)N1)[C@@H](C)CC)[C@@H](C)CC)[C@@H](C)CC)C(=O)N[C@@H](CCC(=O)O)C(=O)N[C@@H](CCCCN)C(=O)N[C@@H](CCC(N)=O)C(=O)N[C@@H](CCC(=O)O)C(=O)N[C@@H](CCCCN)C(=O)N[C@@H](CCC(=O)O)C(=O)N[C@@H](CCCCN)C(=O)N[C@@H](CCC(N)=O)C(=O)N[C@@H](CCC(N)=O)C(=O)N[C@@H](C)C(=O)N[C@H](C(=O)N[C@H](C(=O)N[C@@H](CC(N)=O)C(=O)N[C@@H](CCCNC(=N)N)C(=O)N[C@@H](CC(C)C)C(=O)N[C@@H](CC(C)C)C(=O)N[C@@H](CC(C)C)C(=O)N[C@@H](C)C(=O)N[C@H](C(=O)N[C@H](C(N)=O)C(C)C)[C@@H](C)O)[C@@H](C)O)[C@@H](C)O [compound 17] | 98 | 96 | – | –
